These results are taken from PubChem BioAssay AID1259397 (Fisher Drug Discovery Resource Center, 2018).

Chains of the proteins cited; added tags and fusions are not shown.
UniProt Q8C6L5, whole entry, looked up: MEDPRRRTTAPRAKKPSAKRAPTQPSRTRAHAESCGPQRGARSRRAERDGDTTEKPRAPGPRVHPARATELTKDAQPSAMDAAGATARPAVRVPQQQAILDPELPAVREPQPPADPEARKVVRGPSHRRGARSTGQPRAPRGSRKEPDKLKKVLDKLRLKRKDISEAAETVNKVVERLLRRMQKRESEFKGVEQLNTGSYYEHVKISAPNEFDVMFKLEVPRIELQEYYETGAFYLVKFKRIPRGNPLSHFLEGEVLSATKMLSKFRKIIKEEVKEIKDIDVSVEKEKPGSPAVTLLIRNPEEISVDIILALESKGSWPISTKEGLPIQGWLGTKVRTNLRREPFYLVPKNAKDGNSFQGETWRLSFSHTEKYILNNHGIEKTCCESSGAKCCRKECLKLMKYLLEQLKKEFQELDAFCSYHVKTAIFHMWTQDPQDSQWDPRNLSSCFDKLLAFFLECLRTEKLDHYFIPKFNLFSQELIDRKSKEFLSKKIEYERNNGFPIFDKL

Where “and” joins values, the source holds several entries; their conditions need not be identical. Identical values can stand only once. The list shows a part of the results, in another mix than the full data. Calls of active or inactive are those of the source.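 Rule for the calls: active = inhibition of cGAS enzyme activity at or above 60%; inactive = the rest.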

The experiment addresses Cyclic GMP-AMP synthase (Mus musculus) (UniProt Q8C6L5). Description: inhibitors of Mus musculus cyclic GMP-AMP synthase, initial high-throughput assay, cell-free, RapidFire MS (AID 1259397).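 Note: enzyme stimulated by 45 bp dsDNA with ATP and GTP substrates; cGAMP share of summed cGAMP plus half ATP and half GTP signals.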 The following applies: recombinant mouse cGAS, cGAMP by RapidFire MS; at 12.5 µM; hits give high values.
What is called inhibition is the drop in the measured response relative to a control, in per cent. Turning to `CCOP(=O)(NC(=NC(C)c1ccccc1)NC(C)c1ccccc1)OCC` (stereo not given), the inhibition was inactive: 0.307%.
For the compound `CC1CCC(C(C)C)C(OP(=O)(Nc2ccccn2)c2ccccc2)C1` (stereo not given), the inhibition was inactive: -4.95% and inactive: -10%.
The result for `Cc1n[n+]2c([nH]c1=O)SCC(Br)C2c1ccccc1` (stereo not given) reads inactive: -6.58%; that for `O=C1c2no[n+]([O-])c2C(=O)c2no[n+]([O-])c21`, inactive: 29.4%; that for `CCSP(=O)(c1ccccc1)c1ccccc1`, inactive: -4.08%.
With `CCOP1(=S)c2c(C)nn(CCC#N)c2N=C(c2ccccc2F)N1C` (stereo not given), the inhibition was inactive: -14%.
With `CC(C)N(C(=O)C12CC3CC(C1)CC(P(=O)(Cl)Cl)(C3)C2)C(C)C`, the inhibition is inactive: -3.77%.
Consider `CN1c2ccccc2N2CC(C)(CI)SC12` (stereo not given), for which the inhibition was inactive: -0.724%.
`NC(=O)Nc1ccc([As](=O)(O)O)cc1`: the inhibition was inactive: 4.21%.
The result for `Cc1ccnc(NP2(=O)C=C(c3ccccc3)OC(c3ccccc3)=C2)c1` reads inactive: -9.18%; that for `CN(CCCl)Cc1cc2cc(I)ccc2s1`, inactive: -0.394%; that for `CN1C(=O)C2C(N=C(N3CCOCC3)N2CCc2ccccc2)N(C)C1=O` (stereo not given), inactive: 1.99%.
In the case of `Cc1ccc(NP(=O)(OCC(F)(F)F)OCC(F)(F)F)nc1`, the inhibition was inactive: -2.12%.
For `O=C1OC2C3CC(CC13)C2SC(CCl)C(F)(F)F` (stereo not given), the inhibition is inactive: -1.19%.
As to `COc1ccc2nc(NP(=O)(c3ccccc3)c3ccccc3)sc2c1`, the inhibition is inactive: -31.1%.
As for `CN(C)C1=C(c2c([N+](=O)[O-])cc([N+](=O)[O-])cc2[N+](=O)[O-])CCCC1`, the inhibition is inactive: -5.9%.
To `O=P(N=c1nc(-c2ccccc2)n(-c2ccccc2)s1)(N1CCOCC1)N1CCOCC1` belongs inactive: -3.01%.
To `CC(C)NC(=O)NP(=O)(Oc1ccccc1)Oc1ccccc1` belongs inactive: -1.5%; to `O=C(OC1CN2CCC1CC2)c1cccc2[nH]cnc12` (stereo not given), inactive: -5.78%.
The result for `COP1(=S)N=C2c3ccccc3CN2c2cc(N(C)C)ccc21` (stereo not given) reads inactive: -5.56%; that for `O=C(CBr)c1ccc([N+](=O)[O-])cc1`, inactive: -9.54%; that for `COP1(=S)c2c(C)nn(-c3ccccc3)c2N=C(c2ccccc2)N1C1CC1` (stereo not given), inactive: -10.2%.
On to `O=C(OC1CN2CCC1CC2)C1COc2ccccc2O1` (stereo not given), for which the inhibition was inactive: -18.7%.
To `COP(=O)(NS(=O)(=O)c1ccc(Cl)cc1)OC` belongs inactive: 26.7% and inactive: -15.1%; to `CCCCOP1(=S)N=C2c3ccccc3CN2c2cc(N(C)C)ccc21` (stereo not given), inactive: -19.1%.
`CCCCOP(=O)(OCCCC)N(CC)CC`: the inhibition is inactive: -12.3%.
To `CCOP1(=S)c2c(C)nn(-c3ccccc3)c2N=C(c2ccccc2)N1C1CC1` (stereo not given) belongs inactive: -12.2%; to `CC(C)(C)NC1=NCC(CI)S1` (stereo not given), inactive: -6.13%.
As to `O=C(O[C@H]1CN2CCC1CC2)C1NCc2ccccc2[C@@H]1c1ccccc1` (stereo not given in full), the inhibition was inactive: 0.863%.
Consider `CCOP(OCC)N1CCOCC1`, for which the inhibition is inactive: -21.1%.
To `O=C(NC(Sc1ccncn1)C(Cl)(Cl)Cl)c1ccccc1` (stereo not given) belongs inactive: -18.9%; to `O=P(O)(O)F`, inactive: -9.04%; to `CN(C)c1ccc2c(c1)N1Cc3ccccc3C1=NP2(=O)c1ccccc1` (stereo not given), inactive: -15.1%.
To `O=C(NC1CCS(=O)(=O)C1)NP(=S)(Oc1ccccc1)Oc1ccccc1` (stereo not given) belongs inactive: 17.7%; to `O=C(c1cccc([N+](=O)[O-])c1)c1ccc([N+](=O)[O-])c([N+](=O)[O-])c1`, inactive: -8.57%.
To `CC[N+](CC)=C1SC2CS(=O)(=O)C(Br)C2(C)S1` (stereo not given) belongs inactive: 3.44%; to `O=C(OC1CN2CCC1CC2)c1ccccc1` (stereo not given), inactive: -6.04%.
For `CC1CCC(C(C)C)C(OP(=O)(Nc2nccs2)c2ccccc2)C1` (stereo not given), the inhibition was inactive: -3.17%.
Turning to `O=P(Nc1ccccn1)(c1ccc(Br)cc1)c1ccc(Br)cc1`, the inhibition is inactive: 49%.
To `CCC(C)C(=O)N1CCCC(C(=O)OC2CN3CCC2CC3)C1` (stereo not given) belongs inactive: -5.65%.
